Test: Systemic toxicity in CT26 tumor-bearing mice (body and organ weight, serum biochemistry, histopathology)
Details: 2 mg/kg i.p.

O=C1[O][Pt]2([NH][C@@H]3CCCC[C@H]3[NH]2)[O]C1=O [Oxaliplatin, oxaliplatin, reference compound]
serum concentration of urea compared to saline-treated mice: did not affect
